Reference: publication PMC4945142 (Molecular Biology of the Cell, 2016)

Biological target: γ-tubulin small complex (γTuSC) with γ-tubulin^S48C/S153C, Spc97-YFP and Spc98-CFP (budding yeast) (UniProt P53378)
Test: FRET or BRET

Substance: E. coli-expressed GST-Spc110p^1-220 (from UniProt P32380 1-220) (domain or fragment)
- Kd: 0.37 µM
